Inhibition data for two compounds are collected here from ChEMBL document CHEMBL2169869, “Assay and inhibition of diacylglycerol lipase activity” (Bioorg Med Chem Lett, 2012).

Chains of the proteins cited; added tags and fusions are not shown.
UniProt Q99685, whole entry: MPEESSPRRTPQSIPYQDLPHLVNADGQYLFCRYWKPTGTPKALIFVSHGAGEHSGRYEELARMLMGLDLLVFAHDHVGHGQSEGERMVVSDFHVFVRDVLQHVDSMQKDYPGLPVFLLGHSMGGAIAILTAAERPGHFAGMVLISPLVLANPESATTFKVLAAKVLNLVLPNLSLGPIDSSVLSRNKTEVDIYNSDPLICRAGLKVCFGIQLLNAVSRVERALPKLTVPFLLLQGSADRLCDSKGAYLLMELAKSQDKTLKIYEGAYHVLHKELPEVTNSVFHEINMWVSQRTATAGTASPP
UniProt P97612, whole entry: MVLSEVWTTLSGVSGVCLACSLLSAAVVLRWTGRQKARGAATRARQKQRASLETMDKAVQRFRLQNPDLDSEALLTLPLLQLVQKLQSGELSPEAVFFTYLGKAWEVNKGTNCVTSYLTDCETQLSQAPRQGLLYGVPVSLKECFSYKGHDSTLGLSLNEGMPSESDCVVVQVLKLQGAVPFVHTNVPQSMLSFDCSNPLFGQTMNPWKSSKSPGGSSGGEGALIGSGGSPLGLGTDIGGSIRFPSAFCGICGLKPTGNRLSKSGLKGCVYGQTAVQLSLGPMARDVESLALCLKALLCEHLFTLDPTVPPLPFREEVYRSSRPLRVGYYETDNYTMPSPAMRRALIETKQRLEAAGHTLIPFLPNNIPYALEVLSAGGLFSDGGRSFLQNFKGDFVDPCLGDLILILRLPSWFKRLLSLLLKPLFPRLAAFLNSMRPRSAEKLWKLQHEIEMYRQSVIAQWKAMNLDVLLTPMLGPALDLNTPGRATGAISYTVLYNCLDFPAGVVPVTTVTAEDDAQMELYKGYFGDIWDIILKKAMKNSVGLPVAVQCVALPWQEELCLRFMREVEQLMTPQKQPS

Active and inactive are the calls of the source. The calls are words filed in the database; no cut-off is given here.

The target in assay [1] is T1, Diacylglycerol lipase-alpha (Mus musculus) (UniProt Q6WQJ1).
T1 sequence (whole entry): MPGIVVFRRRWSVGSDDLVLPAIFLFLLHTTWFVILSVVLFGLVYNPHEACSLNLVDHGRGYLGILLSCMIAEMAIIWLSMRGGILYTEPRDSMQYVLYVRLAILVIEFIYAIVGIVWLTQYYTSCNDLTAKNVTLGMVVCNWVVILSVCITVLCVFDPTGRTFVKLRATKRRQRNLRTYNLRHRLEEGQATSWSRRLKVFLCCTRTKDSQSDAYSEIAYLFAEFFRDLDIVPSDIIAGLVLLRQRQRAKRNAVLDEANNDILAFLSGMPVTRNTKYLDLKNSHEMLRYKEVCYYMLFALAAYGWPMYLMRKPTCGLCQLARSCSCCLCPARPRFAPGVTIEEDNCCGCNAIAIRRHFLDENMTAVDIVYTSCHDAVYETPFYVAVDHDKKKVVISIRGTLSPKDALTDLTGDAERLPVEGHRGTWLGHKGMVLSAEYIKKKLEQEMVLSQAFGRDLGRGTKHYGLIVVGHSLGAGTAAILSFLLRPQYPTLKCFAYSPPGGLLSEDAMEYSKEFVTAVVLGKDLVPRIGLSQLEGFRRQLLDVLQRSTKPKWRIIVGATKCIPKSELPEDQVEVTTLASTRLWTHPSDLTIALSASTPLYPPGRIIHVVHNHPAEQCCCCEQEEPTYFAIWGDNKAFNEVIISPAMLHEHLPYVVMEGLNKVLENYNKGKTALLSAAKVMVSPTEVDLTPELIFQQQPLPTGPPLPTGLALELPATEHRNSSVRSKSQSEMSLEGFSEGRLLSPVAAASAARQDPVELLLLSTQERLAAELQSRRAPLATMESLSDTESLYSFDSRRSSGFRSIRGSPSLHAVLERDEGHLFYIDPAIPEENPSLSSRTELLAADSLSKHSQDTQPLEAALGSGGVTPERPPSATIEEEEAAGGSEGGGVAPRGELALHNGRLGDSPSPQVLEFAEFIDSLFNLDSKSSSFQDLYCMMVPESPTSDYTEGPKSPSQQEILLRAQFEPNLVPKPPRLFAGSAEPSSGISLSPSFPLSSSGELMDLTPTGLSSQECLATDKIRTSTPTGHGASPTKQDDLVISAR
Description: Inhibition of mouse DAGLalpha expressed in HEK293T cell membrane using [14C]SAG substrate at 10 nM by scintillation counting based radio-TLC assay. Format: cell membranes. The conditions noted are these: HEK-293T. The gist of the method:
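mDAGLα radio-TLC using 8.8 μg membrane protein in 50 mM Tris pH 7.4 with 10 mM CaCl2. Inhibitor tested at 10 nM–10 μM, preincubated 15 min at 37 °C. [14C]SAG 20 μM final for 20 min at 37 °C. CHCl3/MeOH quench, silica TLC, phosphorimaging. Activity = labelled 2-AG+AA over total label. n=1–2.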

Assay [2] has as its target Monoglyceride lipase (Homo sapiens) (UniProt Q99685). Kind of assay: Inhibition of human N-terminal histidine tagged full length MAGL expressed in Escherichia coli at 10 uM by coumarin ester substrate fluorescence assay. The gist of the method:
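Purified hMAGL fluorescence assay with a 7-hydroxy-6-methoxy coumarin ester reporter substrate; mean of triplicate experiments.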

The target in assay [3] is T2, Diacylglycerol lipase-alpha (Homo sapiens) (UniProt Q9Y4D2).
T2 sequence (whole entry): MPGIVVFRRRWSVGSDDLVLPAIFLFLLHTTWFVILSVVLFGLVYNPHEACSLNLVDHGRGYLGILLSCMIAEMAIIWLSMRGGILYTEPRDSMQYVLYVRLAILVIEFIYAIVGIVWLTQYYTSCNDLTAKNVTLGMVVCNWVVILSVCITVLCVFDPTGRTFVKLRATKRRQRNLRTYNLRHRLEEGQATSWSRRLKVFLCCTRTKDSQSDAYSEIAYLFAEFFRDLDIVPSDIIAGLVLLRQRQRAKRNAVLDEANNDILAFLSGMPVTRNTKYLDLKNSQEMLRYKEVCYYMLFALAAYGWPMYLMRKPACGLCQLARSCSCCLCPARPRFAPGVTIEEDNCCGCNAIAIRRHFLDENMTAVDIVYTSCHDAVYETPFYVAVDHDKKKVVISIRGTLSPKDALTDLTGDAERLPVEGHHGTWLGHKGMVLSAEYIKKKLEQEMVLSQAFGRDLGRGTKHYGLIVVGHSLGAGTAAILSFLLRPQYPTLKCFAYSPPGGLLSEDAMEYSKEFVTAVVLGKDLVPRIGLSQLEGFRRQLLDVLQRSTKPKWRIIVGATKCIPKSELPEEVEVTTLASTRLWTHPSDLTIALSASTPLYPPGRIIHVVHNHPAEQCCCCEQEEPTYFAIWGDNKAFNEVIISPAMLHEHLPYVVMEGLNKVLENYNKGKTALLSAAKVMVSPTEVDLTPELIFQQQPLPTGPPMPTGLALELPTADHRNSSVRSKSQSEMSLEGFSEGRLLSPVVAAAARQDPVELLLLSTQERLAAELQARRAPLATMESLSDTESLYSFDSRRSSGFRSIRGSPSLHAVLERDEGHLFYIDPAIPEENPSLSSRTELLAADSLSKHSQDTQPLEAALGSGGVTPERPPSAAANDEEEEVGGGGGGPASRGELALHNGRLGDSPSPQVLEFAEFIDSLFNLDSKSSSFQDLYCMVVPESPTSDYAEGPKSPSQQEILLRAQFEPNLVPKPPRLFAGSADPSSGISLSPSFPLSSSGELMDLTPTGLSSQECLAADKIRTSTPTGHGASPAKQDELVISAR
Kind of assay: Inhibition of human DAGLalpha expressed in HEK293T cell membrane using [14C]SAG substrate at 10 uM in detergent free solution by scintillation counting based radio-TLC assay. Particulars: HEK-293T. The method in brief:
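Sonicated HEK293T protein (100 μg) in 50 mM Tris pH 7.4 with 10 mM CaCl2. Inhibitor in DMSO (10% DMSO standard) preincubated 15 min at 37 °C. [14C]SAG was added to 20 μM final for 20 min at 37 °C, with Triton X-100 where the line states it. Quenched with 2:1 CHCl3/MeOH. Silica TLC in CHCl3/MeOH/NH4OH 86:14:0.75, then 12 h phosphorimaging. Activity = (2-AG+AA)/(2-AG+AA+SAG). Background-subtracted; n=1–2.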

The species named for a further assay is Sus scrofa. Description: Inhibition of porcine pancreatic lipase type 2 at 10 uM by FRET assay. The method in brief: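 Porcine pancreatic lipase type II (1.0 μg, suspended in 1:9 DMSO/water) with inhibitor 15 min, then pyrene–dinitrophenyl ether-lipid FRET reporter at 25 μM at 37 °C.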
The target in assay [4] is Fatty-acid amide hydrolase 1 (Rattus norvegicus) (UniProt P97612). Kind of assay: Inhibition of rat histidine tagged FAAH expressed in Escherichia coli at 10 uM by coumarin ester substrate fluorescence assay.
In assay [5] the target is T2, Diacylglycerol lipase-alpha (Homo sapiens). Description: Inhibition of human DAGLalpha expressed in HEK293T cell membrane using [14C]SAG substrate at 10 uM using JZL184 pretreated protein in detergent free solution by […]. Format: cell-based. Particulars: HEK-293T.

As to `CCCCCCCCCCCCCCCCS(=O)(=O)F`, the inhibition result in assay [1] and in assay [3] was “inactive” throughout. Also, the inhibition – broadly, the change of the read-out against control, counted positive when it falls – in assay [2] amounted to 82%.

Consider `O=S(=O)(F)Cc1ccccc1` [PHENYLMETHYLSULFONYLFLUORIDE], for which the inhibition stood at 17% in the assay listed under Sus scrofa; 5% in assay [2]; 100% in assay [4]; 19% in assay [3]; 8% in assay [5].
